Source: patent US20140100156A1 (SANOFI, priority 2012, published 2014)

Protein sequences, listed by entry. Tags and fused reporters are not part of them. Residues count along the entry.
UniProt P43220, 24-463: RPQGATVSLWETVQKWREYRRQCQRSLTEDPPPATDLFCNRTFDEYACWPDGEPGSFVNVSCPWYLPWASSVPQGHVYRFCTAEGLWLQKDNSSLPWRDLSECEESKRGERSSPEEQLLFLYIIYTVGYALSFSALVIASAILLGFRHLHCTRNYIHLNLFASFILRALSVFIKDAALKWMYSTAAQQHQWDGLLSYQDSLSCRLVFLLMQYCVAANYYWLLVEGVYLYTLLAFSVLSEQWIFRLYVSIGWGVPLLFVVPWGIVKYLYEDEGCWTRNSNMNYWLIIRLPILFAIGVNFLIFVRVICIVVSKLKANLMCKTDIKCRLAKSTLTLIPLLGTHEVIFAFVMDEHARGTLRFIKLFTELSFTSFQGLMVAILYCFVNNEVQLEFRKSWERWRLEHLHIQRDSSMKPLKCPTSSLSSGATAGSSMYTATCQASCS
UniProt P47871, 26-477: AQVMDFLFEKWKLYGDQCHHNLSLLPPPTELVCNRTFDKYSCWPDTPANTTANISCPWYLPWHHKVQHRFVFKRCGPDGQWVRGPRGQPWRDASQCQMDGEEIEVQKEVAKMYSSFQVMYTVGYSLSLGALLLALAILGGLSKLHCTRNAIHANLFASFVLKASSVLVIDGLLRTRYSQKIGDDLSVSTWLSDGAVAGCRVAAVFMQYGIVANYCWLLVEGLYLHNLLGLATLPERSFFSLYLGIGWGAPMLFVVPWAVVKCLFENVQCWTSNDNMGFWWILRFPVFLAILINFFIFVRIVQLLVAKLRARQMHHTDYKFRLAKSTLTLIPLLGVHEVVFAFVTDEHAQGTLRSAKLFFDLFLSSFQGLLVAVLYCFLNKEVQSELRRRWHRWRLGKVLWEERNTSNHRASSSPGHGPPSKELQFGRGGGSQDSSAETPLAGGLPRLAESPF

Columns and labels:
physchem = format: physicochemical
human GLP-1 receptor = target: T1, human GLP-1 receptor (Homo sapiens, UniProt P43220); experiment: cAMP response (HTRF) of HEK-293 cells stably expressing human GLP-1 receptor; format: cell-based; details: Table 5; cAMP, HEK-293; read-out: EC50 hGLP-1R
T1 construct: expressed in transfected cells; host or cells: HEK-293

human glucagon receptor = target: T2, human glucagon receptor (Homo sapiens, UniProt P47871); experiment: cAMP response (HTRF) of HEK-293 cells stably expressing human glucagon receptor; format: cell-based; details: Table 5; cAMP, HEK-293; read-out: EC50 hGlucagon-R
T2 construct: expressed in transfected cells; host or cells: HEK-293

in vivo = experiment: in vivo; parameters: species or system mice; details: mouse, sc, 1 mg/kg
Method: Mice were dosed 1 mg/kg subcutaneously (s.c.). The mice were sacrificed and blood samples were collected after 0.25, 1, 2, 4, 8, 16 and 24 hours post application. Plasma samples were analysed after protein precipitation via liquid chromatography mass spectrometry (LC/MS). PK parameters and half-life were calculated using WinonLin Version 5.2.1 (non-compartment model).
Pharmacokinetic profiles were determined as described in Methods.

## CCCCCCCCCCCCCCCC(=O)N[C@@H](CCC(=O)NCCCC[C@H](NC(=O)[C@H](CCC(N)=O)NC(=O)[C@H](CCCCN)NC(=O)[C@H](CO)NC(=O)[C@H](CC(C)C)NC(=O)[C@H](CC(=O)O)NC(=O)[C@H](CO)NC(=O)[C@@H](NC(=O)[C@H](Cc1ccccc1)NC(=O)[C@@H](NC(=O)CNC(=O)[C@H](CCC(N)=O)NC(=O)C(C)(C)NC(=O)[C@@H](N)Cc1c[nH]cn1)[C@@H](C)O)[C@@H](C)O)C(=O)N[C@@H](CCC(=O)O)C(=O)N[C@@H](CO)C(=O)N[C@@H](CCCNC(=N)N)C(=O)N[C@@H](CCCNC(=N)N)C(=O)N[C@@H](C)C(=O)N[C@@H](CCC(N)=O)C(=O)N[C@@H](CC(=O)O)C(=O)N[C@@H](Cc1ccccc1)C(=O)N[C@H](C(=O)N[C@@H](CCC(=O)O)C(=O)N[C@@H](Cc1c[nH]c2ccccc12)C(=O)N[C@@H](CC(C)C)C(=O)N[C@@H](CCCCN)C(=O)N[C@@H](CC(N)=O)C(=O)NCC(=O)NCC(=O)N1CCC[C@H]1C(=O)N[C@@H](CO)C(=O)N[C@@H](CO)C(=O)NCC(=O)N[C@@H](C)C(=O)N1CCC[C@H]1C(=O)N1CCC[C@H]1C(=O)N1CCC[C@H]1C(=O)N[C@@H](CO)C(N)=O)[C@@H](C)CC)C(=O)O [compound 117]
physchem; pH 4.5
  solubility at 2 h: > 1000 µg/mL
physchem; pH 7.4
  solubility at 2 h: > 1000 µg/mL
Human GLP-1 receptor
  EC50: 3.8 pM
Human glucagon receptor
  EC50: 16.5 pM
In vivo
  Cmax: 5000 ng/mL
  half-life: 2.7 h

## CCCCCCCCCCCCCCCC(=O)N[C@@H](CCC(=O)NCCCC[C@H](NC(=O)[C@H](CCC(N)=O)NC(=O)[C@H](CCCCN)NC(=O)[C@H](CO)NC(=O)[C@H](CC(C)C)NC(=O)[C@H](CC(=O)O)NC(=O)[C@H](CO)NC(=O)[C@@H](NC(=O)[C@H](Cc1ccccc1)NC(=O)[C@@H](NC(=O)CNC(=O)[C@H](CCC(N)=O)NC(=O)[C@@H](CO)NC(=O)[C@@H](N)Cc1c[nH]cn1)[C@@H](C)O)[C@@H](C)O)C(=O)N[C@@H](CCC(=O)O)C(=O)N[C@@H](CO)C(=O)N[C@@H](CCCNC(=N)N)C(=O)N[C@@H](CCCNC(=N)N)C(=O)N[C@@H](C)C(=O)N[C@@H](CCC(N)=O)C(=O)N[C@@H](CC(=O)O)C(=O)N[C@@H](Cc1ccccc1)C(=O)N[C@H](C(=O)N[C@@H](CCC(=O)O)C(=O)N[C@@H](Cc1c[nH]c2ccccc12)C(=O)N[C@@H](CC(C)C)C(=O)N[C@@H](CCCCN)C(=O)N[C@@H](CCCNC(=N)N)C(=O)N[C@H](C)C(=O)NCC(=O)N1CCC[C@H]1C(=O)N[C@@H](CO)C(=O)N[C@@H](CO)C(=O)NCC(=O)N[C@@H](C)C(=O)N1CCC[C@H]1C(=O)N1CCC[C@H]1C(=O)N1CCC[C@H]1C(=O)N[C@@H](CO)C(N)=O)[C@@H](C)CC)C(=O)O [compound 126]
physchem; pH 4.5
  solubility at 2 h: > 1000 µg/mL
physchem; pH 7.4
  solubility at 2 h: > 1000 µg/mL
Human GLP-1 receptor
  EC50: 6.6 pM
Human glucagon receptor
  EC50: 6.8 pM
In vivo
  Cmax: 3160 ng/mL
  half-life: 1.5 h
